Test system: AMPK (Thr172 phosphorylation) in HCT-116 cells
Test: AMPK activation assay on HCT-116 cells (Thr172 phosphorylation, western blot)
Settings: 10 nM, 20 hours, Thr172 phosphorylation relative to DMSO control
Procedure: AMPK activation can be assessed by the levels of AMPK phosphorylation at Thr172. The APMK activating activities of compounds falling under general formula (I) were investigated by western blotting on different cancer cell lines. Access and cultivation of the respective cell lines are as described above. To this end, A-549, HEP-G2, and HCT-116 cells were seeded into 6-well culture plates (Cyto-One®, #CC7682-7506) in a total volume of 2 mL at a density to achieve 80% confluency by 48 hours and incubated over night at 37 °C and 5% CO2. Cells were treated at a confluency of around 50% with compounds at indicated final concentration by adding 2 μL per well of a 1000× compound DMSO stock-solution. Cells were incubated for 20 hours at 37 °C and 5% CO2. Then, cells were lysed in RIPA buffer (Pierce™ RIPA Buffer, FisherScientific, #89900) supplemented with 1× cOmplete™ Mini Protease Inhibitor Cocktail (Roche, #11836153001) and 1 mM Sodium Orthovanadate (Na3VO3, FisherScientific, #J60191) and lysates were subjected to standard western blotting procedure. Protein concentration of the samples was determined by BCA assay and samples were normalized to achieve equal protein concentration. 4× Laemmli Sample Buffer (Bio-Rad, #1610747) was supplemented with 200 μM DTT (Sigma Aldrich-Merck, #D9779) and added to the samples to achieve a final concentration of 1× Laemmli/50 μM DTT by diluting lysate samples with supplemented Laemmli buffer 1:4. Samples were then incubated at 95 °C for 5 min in a Thermomixer (Eppendorf). SDS-PAGE was performed in 1× Tris/Glycine/SDS buffer (TGS, Bio-Rad, #1610772) using 4-15% gradient polyacrylamide gels (4-15% Mini-PROTEAN® TGX Stain-Free™ Gel, Bio-Rad, #456-8084). Proteins were transferred onto 0.2 μm PVDF membranes using the semi-dry Trans-Blot® Turbo™ transfer system (Trans-Blot® Turbo™, Bio-Rad, #170-4150) with prepacked Trans-Blot® Turbo™ transfer packs (Bio-Rad, #170-4156). […] Signals were developed with chemiluminescence substrate (SuperSignal™ West Pico PLUS, Fisher Scientific, #34577) and detected with the ChemiDoc™ MP imaging system (ChemiDoc™ MP, Bio-Rad, #12003154). Chemiluminescence signals of phosphorylation, total protein and loading control were quantified by densitometry using the image analysis software Image Lab™ (version 6.0.1, Bio-Rad). […]
For each condition, the ratio of phosphorylation to corresponding total protein was calculated from the signal intensities. […]
In the following embodiments, a compound is considered as an AMPK activator if the fold-change value of phosphorylation is 1.5 or higher, preferably 2.0 or higher, and more preferably 2.5 or higher as determined with the method described above.

O=C(c1ccc(Oc2ccc(C3CCC4(CC3)OCCO4)cc2CO)cc1)N1CCN(Cc2ccc(O)cc2)CC1
Fold-change AMPK activation: ≥2.5

COC1CCC(c2ccc(Oc3ccc(C(=O)N4CCN(Cc5ccc(C(F)(F)F)cc5)CC4)cc3)c(CO)c2)CC1 (stereo not shown)
Fold-change AMPK activation: ≥2.5

O=C(c1ccc(Oc2ccc(C3CCC4(CC3)OCCO4)cc2CO)cc1)N1CCN(Cc2ccc([N+](=O)[O-])cc2)CC1
Fold-change AMPK activation: ≥1.5

O=C(c1ccc(Oc2ccc(C3CCC4(CC3)OCCO4)cc2CO)cc1)N1CCN(Cc2ccc3oc(=O)ccc3c2)CC1
Fold-change AMPK activation: ≥2.5

Reference: patent US20260384421A1, “NOVEL COMPOUNDS THAT CAN BE USED AS THERAPEUTIC AGENTS” (published 2026)
